Tested on: Leishmania donovani
Assay: Inhibition of NMT in Leishmania donovani MHOM/ET/67/HU3 intracellular amastigotes assessed as reduction in protein myristoylation measured after 12 hrs in presence of YnMyr by Western blot analysis based tagging assay
Assay type: cell-based

Compound	inhibition
CN1CCC(N(C)c2nc(N(C)CCC#N)c3ccccc3n2)C1 (configuration not stated)	Dose-dependent effect
CN1CCC(N(C)c2nc(N(C)CCC#N)c3sccc3n2)CC1	Dose-dependent effect

— ChEMBL document CHEMBL4610124, “Novel Thienopyrimidine Inhibitors of Leishmania N-Myristoyltransferase with On-Target Activity in Intracellular Amastigotes” (J Med Chem, 2020)
